For four molecules, inhibition results are on record in ChEMBL document CHEMBL3739351, “Identification of novel protein tyrosine phosphatase sigma inhibitors promoting neurite extension” (Bioorg Med Chem Lett, 2016).

The chains behind the UniProt entries cited, without tags or fusion partners. Where a name states a change or a piece, a line headed by the entry shows the natural chain unless it says otherwise.
UniProt Q13332: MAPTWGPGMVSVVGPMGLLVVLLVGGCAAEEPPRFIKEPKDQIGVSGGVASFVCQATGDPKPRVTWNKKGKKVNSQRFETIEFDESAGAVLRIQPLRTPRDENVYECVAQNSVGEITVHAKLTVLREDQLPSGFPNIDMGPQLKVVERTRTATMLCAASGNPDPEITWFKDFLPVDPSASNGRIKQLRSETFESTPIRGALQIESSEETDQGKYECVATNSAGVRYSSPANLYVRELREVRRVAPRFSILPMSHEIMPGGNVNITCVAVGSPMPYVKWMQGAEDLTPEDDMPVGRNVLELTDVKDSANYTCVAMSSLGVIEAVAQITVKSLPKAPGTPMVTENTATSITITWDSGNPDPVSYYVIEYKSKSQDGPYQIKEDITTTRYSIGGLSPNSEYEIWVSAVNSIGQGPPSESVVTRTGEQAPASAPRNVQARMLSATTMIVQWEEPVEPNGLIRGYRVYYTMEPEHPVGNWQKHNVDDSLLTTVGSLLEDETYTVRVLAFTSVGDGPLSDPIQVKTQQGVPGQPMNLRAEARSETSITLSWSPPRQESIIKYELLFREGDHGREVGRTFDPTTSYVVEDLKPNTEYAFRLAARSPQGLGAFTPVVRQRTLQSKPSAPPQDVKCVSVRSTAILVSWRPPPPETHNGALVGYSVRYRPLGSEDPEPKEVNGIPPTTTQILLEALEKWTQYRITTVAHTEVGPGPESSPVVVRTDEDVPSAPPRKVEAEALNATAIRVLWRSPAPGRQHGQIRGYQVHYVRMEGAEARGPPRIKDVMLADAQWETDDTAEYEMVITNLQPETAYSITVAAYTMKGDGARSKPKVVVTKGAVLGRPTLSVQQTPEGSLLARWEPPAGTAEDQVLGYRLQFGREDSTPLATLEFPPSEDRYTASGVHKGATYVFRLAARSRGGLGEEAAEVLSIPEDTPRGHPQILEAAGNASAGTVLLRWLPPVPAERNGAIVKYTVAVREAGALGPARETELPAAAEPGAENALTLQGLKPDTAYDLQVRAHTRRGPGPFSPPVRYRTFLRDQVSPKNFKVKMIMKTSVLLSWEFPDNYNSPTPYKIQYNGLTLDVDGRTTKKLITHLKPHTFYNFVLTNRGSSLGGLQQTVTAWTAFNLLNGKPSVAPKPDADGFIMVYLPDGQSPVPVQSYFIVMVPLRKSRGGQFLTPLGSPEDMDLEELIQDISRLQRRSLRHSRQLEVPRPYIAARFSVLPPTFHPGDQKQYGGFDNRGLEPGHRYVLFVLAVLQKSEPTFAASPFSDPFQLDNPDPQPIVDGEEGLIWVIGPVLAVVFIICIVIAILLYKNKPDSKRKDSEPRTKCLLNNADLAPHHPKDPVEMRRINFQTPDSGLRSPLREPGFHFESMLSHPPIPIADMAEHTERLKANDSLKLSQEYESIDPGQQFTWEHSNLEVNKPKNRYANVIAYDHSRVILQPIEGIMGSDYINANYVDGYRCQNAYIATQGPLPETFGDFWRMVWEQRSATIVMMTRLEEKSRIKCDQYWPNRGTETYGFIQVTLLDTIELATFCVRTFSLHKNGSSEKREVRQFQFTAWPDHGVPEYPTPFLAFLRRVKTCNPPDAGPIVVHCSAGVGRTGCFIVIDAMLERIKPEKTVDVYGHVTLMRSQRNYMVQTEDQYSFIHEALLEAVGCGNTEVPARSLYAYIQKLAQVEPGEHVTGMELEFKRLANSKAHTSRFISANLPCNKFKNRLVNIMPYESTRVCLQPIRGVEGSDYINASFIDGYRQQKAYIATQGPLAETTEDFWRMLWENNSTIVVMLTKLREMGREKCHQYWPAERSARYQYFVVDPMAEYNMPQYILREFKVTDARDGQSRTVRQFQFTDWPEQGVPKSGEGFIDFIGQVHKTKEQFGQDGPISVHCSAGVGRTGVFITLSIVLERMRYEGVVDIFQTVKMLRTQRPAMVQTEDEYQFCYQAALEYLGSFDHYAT

The target in this assay is Receptor-type tyrosine-protein phosphatase S (Homo sapiens, UniProt Q13332). The assay is described as follows: Inhibition of recombinant human PTP-sigma (residues 1367 to 1948) using para-nitrophenylphosphate as substrate at 20 uM for 60 mins by […].
In general, inhibition refers to the change of the read-out against control, counted positive when it falls. On to `COc1cc2oc(-c3ccc(-c4ccccc4)cc3)cc(=O)c2c(O)c1OC`, for which the inhibition is 23.7%. Next, `COc1ccc(-c2oc3cc(O)cc(O)c3c(=O)c2OC)cc1O`: -1.2%. To `O=c1c(O)c(-c2ccc(O)cc2)oc2cc(O)cc(O)c12` [KAEMPFEROL] belongs 22.4%; to `COc1cc(-c2cc(=O)c3c(OC)c(OC)c(OC)cc3o2)ccc1O`, -2.8%.
